Test results as given in publication PMC12678819, “Targeting bacterial kinases as a strategy to counteract antibiotic resistance” (2025).

By UniProt entry, the sequences of proteins in these tests, tags left out. Where a name states a change or a piece, a line headed by the entry shows the natural chain unless it says otherwise. Residues count along the entry.
UniProt Q9UPE1, 79-565 limits assumed: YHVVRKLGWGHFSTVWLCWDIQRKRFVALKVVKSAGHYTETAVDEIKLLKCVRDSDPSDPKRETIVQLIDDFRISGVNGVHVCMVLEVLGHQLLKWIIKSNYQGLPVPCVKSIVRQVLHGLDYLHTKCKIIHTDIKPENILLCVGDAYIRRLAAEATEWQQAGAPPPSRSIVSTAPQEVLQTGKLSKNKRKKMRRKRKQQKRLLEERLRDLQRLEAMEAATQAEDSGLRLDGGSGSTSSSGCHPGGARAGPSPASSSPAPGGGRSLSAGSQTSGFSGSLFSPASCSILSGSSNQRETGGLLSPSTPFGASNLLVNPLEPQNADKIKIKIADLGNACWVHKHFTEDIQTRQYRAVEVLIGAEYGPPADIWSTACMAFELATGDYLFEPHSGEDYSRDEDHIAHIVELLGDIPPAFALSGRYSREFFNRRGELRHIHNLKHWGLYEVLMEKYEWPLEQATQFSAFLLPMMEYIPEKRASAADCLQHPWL
UniProt Q9NSY1, 38-345 limits assumed: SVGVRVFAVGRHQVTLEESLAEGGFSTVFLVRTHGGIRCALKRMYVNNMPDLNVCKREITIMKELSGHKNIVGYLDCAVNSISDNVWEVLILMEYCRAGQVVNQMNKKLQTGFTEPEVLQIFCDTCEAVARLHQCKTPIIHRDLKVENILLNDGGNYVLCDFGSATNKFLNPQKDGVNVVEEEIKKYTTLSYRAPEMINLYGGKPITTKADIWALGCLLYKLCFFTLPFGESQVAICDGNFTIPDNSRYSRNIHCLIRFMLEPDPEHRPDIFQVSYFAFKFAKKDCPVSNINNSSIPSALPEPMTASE
UniProt P45983, 1-364 limits assumed: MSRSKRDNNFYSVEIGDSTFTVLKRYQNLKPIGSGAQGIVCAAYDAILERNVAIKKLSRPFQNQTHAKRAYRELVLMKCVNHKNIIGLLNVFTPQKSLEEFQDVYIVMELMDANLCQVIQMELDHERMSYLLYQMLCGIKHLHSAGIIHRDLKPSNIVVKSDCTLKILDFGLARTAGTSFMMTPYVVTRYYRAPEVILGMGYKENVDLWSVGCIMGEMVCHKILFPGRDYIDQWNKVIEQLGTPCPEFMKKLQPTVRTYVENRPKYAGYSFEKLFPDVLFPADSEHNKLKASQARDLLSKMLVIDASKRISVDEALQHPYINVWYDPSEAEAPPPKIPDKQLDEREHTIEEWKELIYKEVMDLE
UniProt P49761, 156-472 limits assumed: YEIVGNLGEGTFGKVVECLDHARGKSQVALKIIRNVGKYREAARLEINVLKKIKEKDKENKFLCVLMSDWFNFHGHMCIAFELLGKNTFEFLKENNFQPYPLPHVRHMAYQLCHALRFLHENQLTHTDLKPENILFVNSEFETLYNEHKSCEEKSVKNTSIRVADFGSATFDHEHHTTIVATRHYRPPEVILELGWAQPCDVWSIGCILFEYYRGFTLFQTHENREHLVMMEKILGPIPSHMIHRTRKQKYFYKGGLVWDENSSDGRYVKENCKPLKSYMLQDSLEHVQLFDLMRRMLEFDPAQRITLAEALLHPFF
UniProt P22830, 55-423 limits assumed: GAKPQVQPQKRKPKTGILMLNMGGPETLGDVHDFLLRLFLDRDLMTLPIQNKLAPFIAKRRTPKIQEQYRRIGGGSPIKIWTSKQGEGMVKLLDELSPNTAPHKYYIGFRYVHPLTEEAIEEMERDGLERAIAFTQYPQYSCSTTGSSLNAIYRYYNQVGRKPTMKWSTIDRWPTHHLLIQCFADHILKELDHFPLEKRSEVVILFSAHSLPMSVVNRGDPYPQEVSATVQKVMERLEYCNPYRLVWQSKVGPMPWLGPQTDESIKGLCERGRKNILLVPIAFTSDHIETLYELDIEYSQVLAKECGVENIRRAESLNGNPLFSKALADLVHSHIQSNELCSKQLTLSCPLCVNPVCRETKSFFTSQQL
UniProt Q96NX5, 23-277 limits assumed: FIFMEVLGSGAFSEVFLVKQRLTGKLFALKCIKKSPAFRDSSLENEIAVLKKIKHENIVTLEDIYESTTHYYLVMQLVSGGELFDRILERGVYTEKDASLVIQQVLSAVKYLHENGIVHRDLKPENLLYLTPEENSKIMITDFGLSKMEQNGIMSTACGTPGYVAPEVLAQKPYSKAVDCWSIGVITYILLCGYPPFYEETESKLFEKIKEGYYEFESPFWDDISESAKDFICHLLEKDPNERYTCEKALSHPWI
UniProt P19784: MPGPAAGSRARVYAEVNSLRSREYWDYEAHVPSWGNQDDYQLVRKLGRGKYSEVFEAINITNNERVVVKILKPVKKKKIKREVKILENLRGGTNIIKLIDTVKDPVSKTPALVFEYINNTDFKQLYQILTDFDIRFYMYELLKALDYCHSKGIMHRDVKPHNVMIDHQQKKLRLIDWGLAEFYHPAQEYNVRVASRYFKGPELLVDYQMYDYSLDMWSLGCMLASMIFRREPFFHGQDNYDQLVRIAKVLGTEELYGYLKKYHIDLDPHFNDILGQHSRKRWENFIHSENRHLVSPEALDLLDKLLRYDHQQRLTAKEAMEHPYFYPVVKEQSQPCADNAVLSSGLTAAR
UniProt Q5VT25, 77-343 limits assumed: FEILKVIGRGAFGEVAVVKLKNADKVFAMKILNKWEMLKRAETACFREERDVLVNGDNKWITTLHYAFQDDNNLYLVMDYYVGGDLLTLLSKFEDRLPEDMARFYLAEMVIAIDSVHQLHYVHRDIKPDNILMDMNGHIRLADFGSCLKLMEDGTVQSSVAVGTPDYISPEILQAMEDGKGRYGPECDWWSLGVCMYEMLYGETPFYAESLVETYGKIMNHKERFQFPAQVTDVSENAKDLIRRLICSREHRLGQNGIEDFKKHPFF
UniProt P07332, 561-822 limits assumed: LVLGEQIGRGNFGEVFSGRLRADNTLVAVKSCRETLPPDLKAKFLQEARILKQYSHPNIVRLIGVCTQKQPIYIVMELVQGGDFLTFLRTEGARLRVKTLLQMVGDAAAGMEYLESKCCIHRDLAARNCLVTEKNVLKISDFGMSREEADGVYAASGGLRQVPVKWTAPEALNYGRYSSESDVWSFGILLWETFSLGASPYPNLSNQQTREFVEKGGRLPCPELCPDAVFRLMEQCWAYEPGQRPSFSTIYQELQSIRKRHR
UniProt Q96PY6, 1-328 limits assumed: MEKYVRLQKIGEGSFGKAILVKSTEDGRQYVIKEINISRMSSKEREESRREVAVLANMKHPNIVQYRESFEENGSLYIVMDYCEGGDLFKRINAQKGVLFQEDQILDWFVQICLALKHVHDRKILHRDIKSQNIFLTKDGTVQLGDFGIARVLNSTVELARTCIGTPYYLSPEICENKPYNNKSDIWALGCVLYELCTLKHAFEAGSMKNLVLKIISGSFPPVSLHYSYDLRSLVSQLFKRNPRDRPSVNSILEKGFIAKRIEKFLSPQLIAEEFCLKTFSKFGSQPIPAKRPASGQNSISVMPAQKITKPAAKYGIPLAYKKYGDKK
UniProt Q15418, 411-735 limits assumed: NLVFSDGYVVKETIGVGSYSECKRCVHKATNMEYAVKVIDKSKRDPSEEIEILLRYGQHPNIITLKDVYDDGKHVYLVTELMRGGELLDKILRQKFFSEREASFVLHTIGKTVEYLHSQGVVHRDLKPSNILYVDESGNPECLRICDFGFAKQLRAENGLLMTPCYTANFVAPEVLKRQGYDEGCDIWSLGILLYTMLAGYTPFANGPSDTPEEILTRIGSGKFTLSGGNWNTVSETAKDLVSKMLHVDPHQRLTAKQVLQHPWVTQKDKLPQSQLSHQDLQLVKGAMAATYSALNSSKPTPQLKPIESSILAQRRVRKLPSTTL
UniProt Q15375, 590-899 limits assumed: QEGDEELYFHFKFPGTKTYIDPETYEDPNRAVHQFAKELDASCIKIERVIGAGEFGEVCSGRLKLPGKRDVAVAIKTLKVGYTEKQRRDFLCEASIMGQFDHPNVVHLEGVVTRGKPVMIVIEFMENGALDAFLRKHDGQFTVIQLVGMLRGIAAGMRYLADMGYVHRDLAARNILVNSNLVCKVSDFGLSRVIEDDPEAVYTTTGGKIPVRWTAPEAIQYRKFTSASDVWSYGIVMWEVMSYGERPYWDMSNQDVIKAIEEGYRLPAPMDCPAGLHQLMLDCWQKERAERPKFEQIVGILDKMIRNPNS
UniProt P52564, 53-314 limits assumed: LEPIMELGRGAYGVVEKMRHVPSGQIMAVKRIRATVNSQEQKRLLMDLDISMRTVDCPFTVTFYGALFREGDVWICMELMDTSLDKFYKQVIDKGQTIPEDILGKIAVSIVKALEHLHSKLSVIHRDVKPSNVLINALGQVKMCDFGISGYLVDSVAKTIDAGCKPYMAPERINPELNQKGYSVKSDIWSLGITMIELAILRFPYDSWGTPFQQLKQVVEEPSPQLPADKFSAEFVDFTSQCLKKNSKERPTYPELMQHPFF
UniProt Q8TF76, 484-798 limits assumed: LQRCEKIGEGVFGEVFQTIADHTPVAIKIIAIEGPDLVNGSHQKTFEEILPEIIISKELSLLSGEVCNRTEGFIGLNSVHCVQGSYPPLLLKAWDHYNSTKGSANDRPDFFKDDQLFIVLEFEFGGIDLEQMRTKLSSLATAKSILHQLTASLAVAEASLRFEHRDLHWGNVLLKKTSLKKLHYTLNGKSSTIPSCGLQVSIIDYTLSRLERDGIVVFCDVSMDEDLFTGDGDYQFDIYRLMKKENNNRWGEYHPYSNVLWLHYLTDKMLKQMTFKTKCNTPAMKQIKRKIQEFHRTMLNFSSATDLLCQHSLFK
UniProt P49759, 161-477 limits assumed: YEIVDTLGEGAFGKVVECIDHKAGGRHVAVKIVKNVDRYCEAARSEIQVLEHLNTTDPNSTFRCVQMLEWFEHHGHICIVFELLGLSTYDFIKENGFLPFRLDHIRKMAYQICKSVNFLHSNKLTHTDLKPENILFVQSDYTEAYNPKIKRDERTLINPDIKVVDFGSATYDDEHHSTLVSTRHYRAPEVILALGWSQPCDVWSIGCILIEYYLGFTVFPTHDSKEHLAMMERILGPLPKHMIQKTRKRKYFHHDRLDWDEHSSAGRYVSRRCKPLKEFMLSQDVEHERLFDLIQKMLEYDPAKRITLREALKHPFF
UniProt Q13557, 14-272 limits assumed: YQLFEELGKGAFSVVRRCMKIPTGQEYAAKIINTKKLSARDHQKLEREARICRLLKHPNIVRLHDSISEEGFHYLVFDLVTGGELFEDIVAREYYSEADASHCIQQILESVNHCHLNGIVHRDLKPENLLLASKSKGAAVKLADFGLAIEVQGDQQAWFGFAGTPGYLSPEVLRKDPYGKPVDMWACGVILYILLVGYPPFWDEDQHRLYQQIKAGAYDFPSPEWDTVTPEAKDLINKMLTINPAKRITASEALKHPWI
UniProt Q14680, 1-340 limits assumed: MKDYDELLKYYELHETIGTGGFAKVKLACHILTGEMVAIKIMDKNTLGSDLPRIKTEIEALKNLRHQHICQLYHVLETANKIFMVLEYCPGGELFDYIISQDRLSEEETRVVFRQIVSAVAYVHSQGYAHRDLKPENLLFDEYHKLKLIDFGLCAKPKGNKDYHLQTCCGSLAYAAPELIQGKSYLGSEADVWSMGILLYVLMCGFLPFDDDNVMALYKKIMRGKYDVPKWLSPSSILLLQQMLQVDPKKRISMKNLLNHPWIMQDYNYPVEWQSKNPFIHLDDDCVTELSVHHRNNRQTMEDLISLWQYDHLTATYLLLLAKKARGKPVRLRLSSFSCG
UniProt P51955, 1-271 limits assumed: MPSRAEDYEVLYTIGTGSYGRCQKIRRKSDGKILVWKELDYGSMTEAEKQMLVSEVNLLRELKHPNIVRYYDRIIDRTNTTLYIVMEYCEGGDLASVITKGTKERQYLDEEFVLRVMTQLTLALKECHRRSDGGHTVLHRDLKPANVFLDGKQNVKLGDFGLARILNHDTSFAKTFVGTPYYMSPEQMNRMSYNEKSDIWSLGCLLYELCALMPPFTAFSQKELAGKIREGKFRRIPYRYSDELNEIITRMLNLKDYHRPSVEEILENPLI
UniProt Q9Y2H1, 90-453 limits assumed: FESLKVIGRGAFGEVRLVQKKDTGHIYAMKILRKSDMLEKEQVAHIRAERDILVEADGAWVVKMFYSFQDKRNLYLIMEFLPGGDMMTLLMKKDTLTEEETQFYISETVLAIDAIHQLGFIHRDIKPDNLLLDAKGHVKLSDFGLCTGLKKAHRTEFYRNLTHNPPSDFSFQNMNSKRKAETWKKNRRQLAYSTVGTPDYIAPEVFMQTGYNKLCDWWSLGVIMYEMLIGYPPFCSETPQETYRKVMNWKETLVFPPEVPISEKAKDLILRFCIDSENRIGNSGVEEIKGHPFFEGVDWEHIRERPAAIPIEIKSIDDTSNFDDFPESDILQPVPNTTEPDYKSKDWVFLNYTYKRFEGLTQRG
UniProt Q9P289, 1-300 limits assumed: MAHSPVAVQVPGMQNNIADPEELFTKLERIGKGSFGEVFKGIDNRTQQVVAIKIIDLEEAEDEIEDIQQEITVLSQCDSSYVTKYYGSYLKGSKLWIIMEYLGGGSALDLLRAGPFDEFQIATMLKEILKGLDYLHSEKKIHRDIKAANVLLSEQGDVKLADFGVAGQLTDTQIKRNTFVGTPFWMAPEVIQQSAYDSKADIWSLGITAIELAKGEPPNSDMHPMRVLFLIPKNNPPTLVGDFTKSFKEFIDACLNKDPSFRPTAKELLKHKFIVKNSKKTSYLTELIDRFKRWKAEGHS

Columns and labels:
[1] = Plasma stability assay, human; details: 1 μg∙mL-1
MSSK1 = MSSK1 (Homo sapiens, UniProt Q9UPE1); assay: DSF kinase panel; details: 10 μM
BIKE = BIKE (Homo sapiens, UniProt Q9NSY1); assay: DSF kinase panel; details: 10 μM
JNK1 = JNK1 (Homo sapiens, UniProt P45983); assay: DSF kinase panel; details: 10 μM
CLK3 = CLK3 (Homo sapiens, UniProt P49761); assay: DSF kinase panel; details: 10 μM
FECH = FECH (Homo sapiens, UniProt P22830); assay: DSF kinase panel; details: 10 μM
CAMK1G = CAMK1G (Homo sapiens, UniProt Q96NX5); assay: DSF kinase panel; details: 10 μM
CK2a2 = CK2a2 (Homo sapiens, UniProt P19784); assay: DSF kinase panel; details: 10 μM
MRCKa = MRCKa (Homo sapiens, UniProt Q5VT25); assay: DSF kinase panel; details: 10 μM
FES = FES (Homo sapiens, UniProt P07332); assay: DSF kinase panel; details: 10 μM
NEK1 = NEK1 (Homo sapiens, UniProt Q96PY6); assay: DSF kinase panel; details: 10 μM
RSK1_b = RSK1_b (Homo sapiens, UniProt Q15418); assay: DSF kinase panel; details: 10 μM
EPHA7 = EPHA7 (Homo sapiens, UniProt Q15375); assay: DSF kinase panel; details: 10 μM
MAP2K6 = MAP2K6 (Homo sapiens, UniProt P52564); assay: DSF kinase panel; details: 10 μM
Haspin = Haspin (Homo sapiens, UniProt Q8TF76); assay: DSF kinase panel; details: 10 μM
CLK1 = CLK1 (Homo sapiens, UniProt P49759); assay: DSF kinase panel; details: 10 μM
CAMK2D = CAMK2D (Homo sapiens, UniProt Q13557); assay: DSF kinase panel; details: 10 μM
TAF1 = TAF1 (Homo sapiens, UniProt P21675); assay: DSF kinase panel; details: 10 μM
MELK = MELK (Homo sapiens, UniProt Q14680); assay: DSF kinase panel; details: 10 μM
NEK2 = NEK2 (Homo sapiens, UniProt P51955); assay: DSF kinase panel; details: 10 μM
NDR2 = NDR2 (Homo sapiens, UniProt Q9Y2H1); assay: DSF kinase panel; details: 10 μM
MST4 = MST4 (Homo sapiens, UniProt Q9P289); assay: DSF kinase panel; details: 10 μM

## C[C@@H](CO)Cn1cc(-c2c(Cl)cnc3[nH]ccc23)nn1
[1]
  t1/2 human plasma: > 4 h
MSSK1
  ΔTm MSSK1: 0.2 °C
BIKE
  ΔTm BIKE: 10.2 °C
JNK1
  ΔTm JNK1: 1.7 °C
CLK3
  ΔTm CLK3: 1.7 °C
FECH
  ΔTm FECH: -0.7 °C
CAMK1G
  ΔTm CAMK1G: 2.2 °C
CK2a2
  ΔTm CK2a2: 2.5 °C
MRCKa
  ΔTm MRCKa: 0.2 °C
FES
  ΔTm FES: 1.0 °C
NEK1
  ΔTm NEK1: 0.7 °C
RSK1_b
  ΔTm RSK1_b: 2.0 °C
EPHA7
  ΔTm EPHA7: 1.5 °C
MAP2K6
  ΔTm MAP2K6: 4.1 °C
Haspin
  ΔTm Haspin: 2.3 °C
CLK1
  ΔTm CLK1: 5.3 °C
CAMK2D
  ΔTm CAMK2D: -0.9 °C
TAF1
  ΔTm TAF1: 0.7 °C
MELK
  ΔTm MELK: 4.3 °C
NEK2
  ΔTm NEK2: -3.3 °C
NDR2
  ΔTm NDR2: -1.0 °C
MST4
  ΔTm MST4: -0.4 °C

## Clc1cnc2[nH]ccc2c1-c1cn(-c2ccccc2)nn1
[1]
  t1/2 human plasma: >4 h
MSSK1
  ΔTm MSSK1: -0.2 °C
BIKE
  ΔTm BIKE: 8.5 °C
JNK1
  ΔTm JNK1: 1.1 °C
CLK3
  ΔTm CLK3: 1.0 °C
FECH
  ΔTm FECH: -2.4 °C
CAMK1G
  ΔTm CAMK1G: 0.9 °C
CK2a2
  ΔTm CK2a2: 0.7 °C
MRCKa
  ΔTm MRCKa: 0.1 °C
FES
  ΔTm FES: -0.7 °C
NEK1
  ΔTm NEK1: 0.8 °C
RSK1_b
  ΔTm RSK1_b: 1.5 °C
EPHA7
  ΔTm EPHA7: 1.3 °C
MAP2K6
  ΔTm MAP2K6: 1.9 °C
Haspin
  ΔTm Haspin: 1.0 °C
CLK1
  ΔTm CLK1: 3.5 °C
CAMK2D
  ΔTm CAMK2D: -0.4 °C
TAF1
  ΔTm TAF1: 2.1 °C
MELK
  ΔTm MELK: 1.9 °C
NEK2
  ΔTm NEK2: -1.0 °C
NDR2
  ΔTm NDR2: -1.1 °C
MST4
  ΔTm MST4: -0.7 °C

## OC[C@H](O)Cn1cc(-c2c(Cl)cnc3[nH]ccc23)nn1
MSSK1
  ΔTm MSSK1: -0.6 °C
BIKE
  ΔTm BIKE: 9.1 °C
JNK1
  ΔTm JNK1: 1.4 °C
CLK3
  ΔTm CLK3: 0.8 °C
FECH
  ΔTm FECH: -1.2 °C
CAMK1G
  ΔTm CAMK1G: 1.6 °C
CK2a2
  ΔTm CK2a2: 1.6 °C
MRCKa
  ΔTm MRCKa: 0.2 °C
FES
  ΔTm FES: 0.5 °C
NEK1
  ΔTm NEK1: 0.7 °C
RSK1_b
  ΔTm RSK1_b: 1.0 °C
EPHA7
  ΔTm EPHA7: 0.9 °C
MAP2K6
  ΔTm MAP2K6: 3.6 °C
Haspin
  ΔTm Haspin: 3.2 °C
CLK1
  ΔTm CLK1: 3.5 °C
CAMK2D
  ΔTm CAMK2D: -0.9 °C
TAF1
  ΔTm TAF1: 0.0 °C
MELK
  ΔTm MELK: 3.7 °C
NEK2
  ΔTm NEK2: -1.5 °C
NDR2
  ΔTm NDR2: -0.9 °C
MST4
  ΔTm MST4: -1.2 °C

## C[C@H](CO)Cn1cc(-c2c(Cl)cnc3[nH]ccc23)nn1
[1]
  t1/2 human plasma: > 4 h
MSSK1
  ΔTm MSSK1: 0.0 °C
BIKE
  ΔTm BIKE: 10.2 °C
JNK1
  ΔTm JNK1: 1.6 °C
CLK3
  ΔTm CLK3: 1.4 °C
FECH
  ΔTm FECH: -1.1 °C
CAMK1G
  ΔTm CAMK1G: 1.9 °C
CK2a2
  ΔTm CK2a2: 2.4 °C
MRCKa
  ΔTm MRCKa: 0.1 °C
FES
  ΔTm FES: 1.0 °C
NEK1
  ΔTm NEK1: 1.7 °C
RSK1_b
  ΔTm RSK1_b: 1.5 °C
EPHA7
  ΔTm EPHA7: 1.3 °C
MAP2K6
  ΔTm MAP2K6: 4.1 °C
Haspin
  ΔTm Haspin: 1.1 °C
CLK1
  ΔTm CLK1: 4.8 °C
CAMK2D
  ΔTm CAMK2D: 0.0 °C
TAF1
  ΔTm TAF1: 2.3 °C
MELK
  ΔTm MELK: 4.1 °C
NEK2
  ΔTm NEK2: -0.7 °C
NDR2
  ΔTm NDR2: -1.0 °C
MST4
  ΔTm MST4: -0.9 °C

## Clc1cnc2[nH]ccc2c1-c1ccn[nH]1
[1]
  t1/2 human plasma: > 4 h
MSSK1
  ΔTm MSSK1: -0.4 °C
BIKE
  ΔTm BIKE: 9.6 °C
JNK1
  ΔTm JNK1: 0.9 °C
CLK3
  ΔTm CLK3: 0.9 °C
FECH
  ΔTm FECH: -0.6 °C
CAMK1G
  ΔTm CAMK1G: 1.0 °C
CK2a2
  ΔTm CK2a2: 0.8 °C
MRCKa
  ΔTm MRCKa: 0.1 °C
FES
  ΔTm FES: 1.5 °C
NEK1
  ΔTm NEK1: 0.3 °C
RSK1_b
  ΔTm RSK1_b: 0.2 °C
EPHA7
  ΔTm EPHA7: 0.4 °C
MAP2K6
  ΔTm MAP2K6: 2.1 °C
Haspin
  ΔTm Haspin: 1.3 °C
CLK1
  ΔTm CLK1: 2.4 °C
CAMK2D
  ΔTm CAMK2D: -0.6 °C
TAF1
  ΔTm TAF1: 0.7 °C
MELK
  ΔTm MELK: 2.5 °C
NEK2
  ΔTm NEK2: -1.5 °C
NDR2
  ΔTm NDR2: -1.1 °C
MST4
  ΔTm MST4: -1.6 °C

## NC(=O)Cn1cc(-c2c(Cl)cnc3[nH]ccc23)nn1
[1]
  t1/2 human plasma: 3.357 h
MSSK1
  ΔTm MSSK1: -0.4 °C
BIKE
  ΔTm BIKE: 8.7 °C
JNK1
  ΔTm JNK1: 0.8 °C
CLK3
  ΔTm CLK3: 0.7 °C
FECH
  ΔTm FECH: 7.0 °C
CAMK1G
  ΔTm CAMK1G: 1.4 °C
CK2a2
  ΔTm CK2a2: 1.2 °C
MRCKa
  ΔTm MRCKa: 0.1 °C
FES
  ΔTm FES: 0.7 °C
NEK1
  ΔTm NEK1: 0.6 °C
RSK1_b
  ΔTm RSK1_b: 1.2 °C
EPHA7
  ΔTm EPHA7: 0.7 °C
MAP2K6
  ΔTm MAP2K6: 3.7 °C
Haspin
  ΔTm Haspin: 3.0 °C
CLK1
  ΔTm CLK1: 3.3 °C
CAMK2D
  ΔTm CAMK2D: 0.1 °C
TAF1
  ΔTm TAF1: -15.1 °C
MELK
  ΔTm MELK: 3.2 °C
NEK2
  ΔTm NEK2: -1.0 °C
NDR2
  ΔTm NDR2: -1.1 °C
MST4
  ΔTm MST4: -1.5 °C

## C[C@@H](O)Cn1cc(-c2c(Cl)cnc3[nH]ccc23)nn1
MSSK1
  ΔTm MSSK1: -0.1 °C
BIKE
  ΔTm BIKE: 8.8 °C
JNK1
  ΔTm JNK1: 1.8 °C
CLK3
  ΔTm CLK3: 0.9 °C
FECH
  ΔTm FECH: -1.8 °C
CAMK1G
  ΔTm CAMK1G: 1.5 °C
CK2a2
  ΔTm CK2a2: 1.7 °C
MRCKa
  ΔTm MRCKa: 0.1 °C
FES
  ΔTm FES: 0.6 °C
NEK1
  ΔTm NEK1: 0.3 °C
RSK1_b
  ΔTm RSK1_b: 1.0 °C
EPHA7
  ΔTm EPHA7: 0.9 °C
MAP2K6
  ΔTm MAP2K6: 3.8 °C
Haspin
  ΔTm Haspin: 2.7 °C
CLK1
  ΔTm CLK1: 4.5 °C
CAMK2D
  ΔTm CAMK2D: -0.5 °C
MELK
  ΔTm MELK: 3.4 °C
NEK2
  ΔTm NEK2: -1.8 °C
NDR2
  ΔTm NDR2: -1.0 °C
MST4
  ΔTm MST4: -0.9 °C

## C[C@H](O)Cn1cc(-c2c(Cl)cnc3[nH]ccc23)nn1
MSSK1
  ΔTm MSSK1: -0.1 °C
BIKE
  ΔTm BIKE: 9.2 °C
JNK1
  ΔTm JNK1: 1.8 °C
CLK3
  ΔTm CLK3: 1.3 °C
FECH
  ΔTm FECH: -0.7 °C
CAMK1G
  ΔTm CAMK1G: 1.8 °C
CK2a2
  ΔTm CK2a2: 1.5 °C
MRCKa
  ΔTm MRCKa: 0.5 °C
FES
  ΔTm FES: 0.9 °C
NEK1
  ΔTm NEK1: 1.1 °C
RSK1_b
  ΔTm RSK1_b: 1.3 °C
EPHA7
  ΔTm EPHA7: 1.2 °C
MAP2K6
  ΔTm MAP2K6: 3.6 °C
Haspin
  ΔTm Haspin: 3.2 °C
CLK1
  ΔTm CLK1: 4.1 °C
CAMK2D
  ΔTm CAMK2D: -0.1 °C
TAF1
  ΔTm TAF1: -0.8 °C
MELK
  ΔTm MELK: 3.6 °C
NEK2
  ΔTm NEK2: -0.1 °C
NDR2
  ΔTm NDR2: -0.8 °C
MST4
  ΔTm MST4: -0.1 °C

## C[C@@H](O)CCn1cc(-c2c(Cl)cnc3[nH]ccc23)nn1
[1]
  t1/2 human plasma: > 4 h
MSSK1
  ΔTm MSSK1: -0.2 °C
BIKE
  ΔTm BIKE: 10.0 °C
JNK1
  ΔTm JNK1: 1.3 °C
CLK3
  ΔTm CLK3: 0.6 °C
FECH
  ΔTm FECH: -3.1 °C
CAMK1G
  ΔTm CAMK1G: 1.2 °C
CK2a2
  ΔTm CK2a2: 2.0 °C
MRCKa
  ΔTm MRCKa: 0.2 °C
FES
  ΔTm FES: 0.8 °C
NEK1
  ΔTm NEK1: -0.2 °C
RSK1_b
  ΔTm RSK1_b: 0.9 °C
EPHA7
  ΔTm EPHA7: 0.9 °C
MAP2K6
  ΔTm MAP2K6: 3.3 °C
Haspin
  ΔTm Haspin: 1.2 °C
CLK1
  ΔTm CLK1: 3.8 °C
CAMK2D
  ΔTm CAMK2D: -0.6 °C
TAF1
  ΔTm TAF1: 0.7 °C
MELK
  ΔTm MELK: 3.3 °C
NEK2
  ΔTm NEK2: -0.5 °C
NDR2
  ΔTm NDR2: -1.1 °C
MST4
  ΔTm MST4: -1.2 °C

## OCCCn1cc(-c2c(Cl)cnc3[nH]ccc23)nn1
[1]
  t1/2 human plasma: >4 h
MSSK1
  ΔTm MSSK1: -0.1 °C
BIKE
  ΔTm BIKE: 10.2 °C
JNK1
  ΔTm JNK1: 1.3 °C
CLK3
  ΔTm CLK3: 1.2 °C
FECH
  ΔTm FECH: -1.5 °C
CAMK1G
  ΔTm CAMK1G: 1.7 °C
CK2a2
  ΔTm CK2a2: 1.8 °C
MRCKa
  ΔTm MRCKa: 0.2 °C
FES
  ΔTm FES: 0.6 °C
NEK1
  ΔTm NEK1: 1.0 °C
RSK1_b
  ΔTm RSK1_b: 1.2 °C
EPHA7
  ΔTm EPHA7: 1.1 °C
MAP2K6
  ΔTm MAP2K6: 3.7 °C
Haspin
  ΔTm Haspin: 2.7 °C
CLK1
  ΔTm CLK1: 4.1 °C
CAMK2D
  ΔTm CAMK2D: -0.4 °C
TAF1
  ΔTm TAF1: -0.2 °C
MELK
  ΔTm MELK: 4.1 °C
NEK2
  ΔTm NEK2: -1.6 °C
NDR2
  ΔTm NDR2: -0.7 °C
MST4
  ΔTm MST4: -0.6 °C
